In BindingDB's records for doi:10.1016/s0960-894x(98)00284-4 (Glaxowellcome, 1998):

Biological target: Glutamate receptor ionotropic, NMDA 1 (Rattus norvegicus, UniProt P35439)
Assay: ChEBML_140329
Method: In vitro affinity of compound for the glycinergic site associated with NMDA receptor was assessed by inhibition of the binding of [3H]glycine

O=C(/C=C/c1c(C(=O)O)[nH]c2cc(Cl)cc(Cl)c12)Nc1ccccc1 [GV-150526X]
Ki: 8.5 nM
